By UniProt entry, the sequences of proteins in these tests, tags left out.
UniProt Q96RJ0, whole entry: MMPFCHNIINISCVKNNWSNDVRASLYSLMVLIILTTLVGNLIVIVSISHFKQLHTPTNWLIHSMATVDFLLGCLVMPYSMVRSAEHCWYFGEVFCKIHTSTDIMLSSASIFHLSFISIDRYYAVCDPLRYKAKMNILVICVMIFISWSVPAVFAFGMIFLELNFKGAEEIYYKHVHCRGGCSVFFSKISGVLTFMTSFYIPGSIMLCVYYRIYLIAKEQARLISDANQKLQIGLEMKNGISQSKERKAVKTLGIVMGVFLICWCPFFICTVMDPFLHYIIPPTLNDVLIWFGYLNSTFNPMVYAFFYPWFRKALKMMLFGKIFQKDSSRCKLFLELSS

According to patent US20250382306A1, “HETEROCYCLIC COMPOUND AS TAAR1 LIGAND AGONIST” (SHANDONG LUYE PHARMACEUTICAL CO., LTD., priority 2022, published 2025):

molecular target: TAAR1 (Homo sapiens, UniProt Q96RJ0); assay: In vitro TAAR1 functional activity (cAMP Hunter CHO-K1 TAAR1 Gs cell line, HitHunter cAMP assay); conditions: chemiluminescence cAMP readout

Point of comparison: Fc1ccsc1C1CNCCO1 (single isomer, unassigned) [Compound 7-a], EC50 4.14 µM. Against it:
- CC(=O)c1ccsc1C1CNCCO1 (single isomer, unassigned) — higher, > 10 µM
- Fc1ccsc1C1CNCCO1 (single isomer, unassigned) [Compound 7-b] — 12-fold lower, 0.344 µM
